Columns and labels:
Test in all cases: PDE enzyme activity inhibition assay (fluorescence polarization, IMAP)
[1] = target: PDE3A (Homo sapiens, UniProt Q14432); conditions: read-out: PDE3A; FP assay, Table 4
Experimental: (§1) The inhibitory activity of the compounds of the Examples against PDE enzymes was evaluated using a fluorescence polarization (FP) assay. RPL-554, the compound disclosed in Example 1 of CN100415743C, was used as the positive control. [drawing 182]
(§2) In a reaction buffer, i.e., 1× IMAP Reaction Buffer containing 0.1% BSA and supplemented with 1 mM DTT, a PDE enzyme solution and a substrate solution (FAM-cyclic AMP/cyclic AMP) were prepared. The positive control was prepared at an initial concentration of 1/10 µM for the PDE assay and was diluted 3-fold, with a 10+0 dose design. Using the acoustic liquid handling technology (Echo 655), 0.05 µL of each compound in 100% DMSO was transferred into a 384-well plate (Corning 4514), followed by centrifugation at 1,000 rpm for 1 min. Then, 2.5 µL of the PDE enzyme solution was transferred into the 384-well reaction plate, followed by centrifugation at 1,000 rpm for 1 min and incubation at 25 °C for 10 min. Subsequently, 2.5 µL of the substrate solution was transferred into the 384-well reaction plate, followed by centrifugation at 1,000 rpm for 1 min and incubation at 25 °C for 60 min. Then, 15 µL of a binding reagent mixture was transferred into the 384-well reaction plate, followed by centrifugation at 1,000 rpm for 1 min and incubation at 25 °C for 60 min. Finally, the FP signal was measured using a BMG PHERAstar FSX plate reader. IC50 values and nonlinear regression curve fitting were obtained using GraphPad Prism software.
(§3) The inhibitory activities of the compounds against PDE enzymes were evaluated using the FP method, with RPL-554 and compound D7 as control compounds. The detailed test method was the same as that described in PDE Enzyme Activity Inhibition Assay I. The structural formulae of RPL-554 and compound D7 are shown below. [drawing 183]

The chains behind the UniProt entries cited, without tags or fusion partners. A line that says so, or that is headed by a name, gives the form on record, which may keep a tag or linker. Residues count along the entry.
UniProt Q14432, whole entry: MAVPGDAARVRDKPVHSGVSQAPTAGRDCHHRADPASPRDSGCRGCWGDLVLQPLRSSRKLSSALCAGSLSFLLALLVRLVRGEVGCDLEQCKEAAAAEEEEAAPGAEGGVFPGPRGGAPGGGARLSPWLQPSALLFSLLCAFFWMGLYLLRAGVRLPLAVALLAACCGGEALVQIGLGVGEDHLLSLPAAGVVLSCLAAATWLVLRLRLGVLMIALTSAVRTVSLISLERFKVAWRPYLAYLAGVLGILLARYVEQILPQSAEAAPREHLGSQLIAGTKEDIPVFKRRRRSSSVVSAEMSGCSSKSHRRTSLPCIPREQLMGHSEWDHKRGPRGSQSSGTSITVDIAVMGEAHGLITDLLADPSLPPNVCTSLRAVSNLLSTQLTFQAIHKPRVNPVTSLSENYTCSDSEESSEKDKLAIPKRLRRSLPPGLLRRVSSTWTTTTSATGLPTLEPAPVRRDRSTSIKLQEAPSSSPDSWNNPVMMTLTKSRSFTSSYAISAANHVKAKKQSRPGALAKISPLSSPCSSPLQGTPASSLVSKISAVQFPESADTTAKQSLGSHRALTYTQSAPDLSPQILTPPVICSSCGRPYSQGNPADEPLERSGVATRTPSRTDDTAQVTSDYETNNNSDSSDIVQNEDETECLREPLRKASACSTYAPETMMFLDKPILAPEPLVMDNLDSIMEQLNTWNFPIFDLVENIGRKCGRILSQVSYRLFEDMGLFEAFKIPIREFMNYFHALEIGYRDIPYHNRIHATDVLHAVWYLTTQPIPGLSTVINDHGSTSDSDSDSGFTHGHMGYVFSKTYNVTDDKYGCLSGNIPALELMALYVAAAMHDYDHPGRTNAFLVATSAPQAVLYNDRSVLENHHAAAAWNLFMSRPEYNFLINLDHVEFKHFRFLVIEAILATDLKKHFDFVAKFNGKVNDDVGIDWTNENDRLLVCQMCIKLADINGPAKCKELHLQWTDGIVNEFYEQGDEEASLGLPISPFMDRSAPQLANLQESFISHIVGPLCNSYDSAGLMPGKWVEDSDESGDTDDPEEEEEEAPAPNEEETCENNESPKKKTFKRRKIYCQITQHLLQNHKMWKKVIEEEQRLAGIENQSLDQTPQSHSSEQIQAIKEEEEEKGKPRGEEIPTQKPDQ
UniProt Q07343, 1-564 with tags or gaps: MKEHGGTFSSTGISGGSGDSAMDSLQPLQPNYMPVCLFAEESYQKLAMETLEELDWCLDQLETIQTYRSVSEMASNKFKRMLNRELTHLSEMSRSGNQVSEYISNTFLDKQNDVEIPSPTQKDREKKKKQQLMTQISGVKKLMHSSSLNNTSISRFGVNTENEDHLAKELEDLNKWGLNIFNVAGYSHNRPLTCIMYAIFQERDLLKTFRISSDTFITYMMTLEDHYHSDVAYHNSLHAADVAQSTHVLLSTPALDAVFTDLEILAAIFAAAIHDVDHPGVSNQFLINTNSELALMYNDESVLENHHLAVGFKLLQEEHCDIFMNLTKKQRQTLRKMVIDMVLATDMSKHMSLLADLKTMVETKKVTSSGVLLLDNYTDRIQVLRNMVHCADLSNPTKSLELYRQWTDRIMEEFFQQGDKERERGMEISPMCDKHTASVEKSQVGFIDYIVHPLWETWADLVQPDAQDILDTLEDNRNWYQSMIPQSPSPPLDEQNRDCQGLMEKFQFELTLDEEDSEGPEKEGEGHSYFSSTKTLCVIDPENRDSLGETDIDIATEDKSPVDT
UniProt Q08499, 303-809 limits assumed: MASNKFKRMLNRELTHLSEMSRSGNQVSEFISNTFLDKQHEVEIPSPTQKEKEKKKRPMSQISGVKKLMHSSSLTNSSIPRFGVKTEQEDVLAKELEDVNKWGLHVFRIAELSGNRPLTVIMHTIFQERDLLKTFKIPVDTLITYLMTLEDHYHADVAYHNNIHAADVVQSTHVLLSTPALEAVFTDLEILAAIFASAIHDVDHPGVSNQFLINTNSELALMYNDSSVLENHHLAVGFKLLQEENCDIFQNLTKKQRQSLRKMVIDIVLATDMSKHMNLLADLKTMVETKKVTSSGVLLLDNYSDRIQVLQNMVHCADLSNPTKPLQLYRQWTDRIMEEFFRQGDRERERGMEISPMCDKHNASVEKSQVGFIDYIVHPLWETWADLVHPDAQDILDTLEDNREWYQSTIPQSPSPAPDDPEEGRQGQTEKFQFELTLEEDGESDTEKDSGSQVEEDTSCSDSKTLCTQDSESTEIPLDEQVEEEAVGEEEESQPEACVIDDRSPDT
UniProt Q13370, whole entry: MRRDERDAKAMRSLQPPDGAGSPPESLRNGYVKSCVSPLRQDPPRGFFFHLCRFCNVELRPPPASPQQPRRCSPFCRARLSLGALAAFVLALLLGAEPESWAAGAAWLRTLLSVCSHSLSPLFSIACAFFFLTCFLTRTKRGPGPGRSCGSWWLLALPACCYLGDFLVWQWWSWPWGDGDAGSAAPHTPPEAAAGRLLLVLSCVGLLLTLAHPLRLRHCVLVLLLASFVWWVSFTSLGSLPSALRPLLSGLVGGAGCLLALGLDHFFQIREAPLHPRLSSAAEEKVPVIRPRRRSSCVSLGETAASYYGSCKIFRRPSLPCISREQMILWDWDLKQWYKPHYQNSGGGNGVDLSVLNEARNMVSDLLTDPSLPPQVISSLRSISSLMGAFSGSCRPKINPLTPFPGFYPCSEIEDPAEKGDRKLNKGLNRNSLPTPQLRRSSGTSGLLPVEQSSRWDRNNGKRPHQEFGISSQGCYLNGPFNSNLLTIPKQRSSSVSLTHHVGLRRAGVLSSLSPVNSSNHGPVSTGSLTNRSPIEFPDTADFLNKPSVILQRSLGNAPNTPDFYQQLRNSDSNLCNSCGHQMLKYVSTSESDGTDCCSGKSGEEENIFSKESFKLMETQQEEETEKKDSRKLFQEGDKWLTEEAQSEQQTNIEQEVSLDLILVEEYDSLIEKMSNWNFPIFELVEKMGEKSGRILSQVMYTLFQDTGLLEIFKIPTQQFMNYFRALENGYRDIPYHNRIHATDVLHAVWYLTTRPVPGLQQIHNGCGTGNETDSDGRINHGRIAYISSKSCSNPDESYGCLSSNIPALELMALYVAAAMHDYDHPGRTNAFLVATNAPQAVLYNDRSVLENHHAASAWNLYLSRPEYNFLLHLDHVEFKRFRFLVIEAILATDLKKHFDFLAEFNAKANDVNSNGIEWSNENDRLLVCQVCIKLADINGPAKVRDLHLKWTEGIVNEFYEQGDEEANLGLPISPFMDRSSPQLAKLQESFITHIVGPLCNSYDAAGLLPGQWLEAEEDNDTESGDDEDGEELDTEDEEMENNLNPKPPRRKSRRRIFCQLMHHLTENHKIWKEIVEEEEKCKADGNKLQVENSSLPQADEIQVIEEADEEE

[2] = target: PDE4B2 (Homo sapiens, UniProt Q07343); conditions: read-out: PDE4B2; FP assay, Table 4
Experimental: as §1, §2, §3

[3] = target: PDE4D2 (Homo sapiens, UniProt Q08499); conditions: read-out: PDE4D2; FP assay, Table 4
Experimental: as §1, §2, §3

[4] = target: PDE3B (Homo sapiens, UniProt Q13370); conditions: read-out: PDE3B; FP assay, Table 4
Experimental: as §1, §2, §3

| SMILES | IC50 [1] | IC50 [2] | IC50 [3] | IC50 [4] |
| --- | --- | --- | --- | --- |
| COc1cc2c(cc1OC)-c1cc(N(c3c(C)cc(C)cc3C)C(C)CNC(=O)c3cnc[nH]3)nc(=O)n1CC2 (single isomer, unassigned) [Compound 13-1] | 0.112 nM | 9.78 nM | 5.84 nM | 0.158 nM |
| COc1cc2c(cc1OC)-c1cc(N(c3c(C)cc(C)cc3C)C3CCC(NC(N)=O)CC3)nc(=O)n1CC2 (centres unmarked) | 0.0712 nM | 64.8 nM | 29.5 nM | 0.0848 nM |
| COc1cc2c(cc1OC)-c1cc(N(c3c(C)cc(C)cc3C)C(C)CNC(=O)c3cccc(C)n3)nc(=O)n1CC2 (centres unmarked) | 0.114 nM | 1.4 nM | 0.831 nM | 0.126 nM |
| COc1cc2c(cc1OC)-c1cc(N(c3c(C)cc(C)cc3C)C(C)CNC(=O)/C(C#N)=C(/C)O)nc(=O)n1CC2 (centres unmarked) | 0.0887 nM | 598 nM | 368 nM | 0.136 nM |
| COc1cc2c(cc1OC)-c1cc(N(c3c(C)cc(C)cc3C)C3CC3CNC(N)=O)nc(=O)n1CC2 (single isomer, unassigned) [Compound 7-3] | 0.0896 nM | 139 nM | 165 nM | 0.149 nM |
| COc1cc2c(cc1OC)-c1cc(N(c3c(C)cc(C)cc3C)C(C)CCNC(N)=O)nc(=O)n1CC2 (single isomer, unassigned) [Compound 3-1] | 0.0945 nM | 187 nM | 227 nM | 0.103 nM |
| COc1cc2c(cc1OC)-c1cc(N(c3c(C)cc(C)cc3C)C(C)CCNC(N)=O)nc(=O)n1CC2 (single isomer, unassigned) [Compound 3-2] | 0.0979 nM | 152 nM | 215 nM | 0.1 nM |
| COc1cc2c(cc1OC)-c1cc(N(CCNC(N)=O)c3c(C)cc(C)cc3C)nc(=O)n1CC2 | 0.125 nM | 87.2 nM | 60.7 nM | 0.173 nM |
| COc1cc2c(cc1OC)-c1cc(N(c3c(C)cc(C)cc3C)C(C)CNC(=O)c3ccccc3)nc(=O)n1CC2 (centres unmarked) | 0.172 nM | 26.6 nM | 15.6 nM | 0.461 nM |
| COc1cc2c(cc1OC)-c1cc(N(c3c(C)cc(C)cc3C)C(C)CNC(=O)c3cncc(C)n3)nc(=O)n1CC2 (centres unmarked) | 0.0905 nM | 5.13 nM | 4.04 nM | 0.11 nM |
| CCC(CNC(N)=O)N(c1cc2n(c(=O)n1)CCc1cc(OC)c(OC)cc1-2)c1c(C)cc(C)cc1C (single isomer, unassigned) [Compound 15-2] | 0.0756 nM | 21.8 nM | 13.2 nM | 0.0767 nM |
| COc1cc2c(cc1OC)-c1cc(N(c3c(C)cc(C)cc3C)C(C)CNC(=O)c3ccn[nH]3)nc(=O)n1CC2 (single isomer, unassigned) [Compound 11-2] | 0.0696 nM | 155 nM | 157 nM | 0.1 nM |
| COc1cc2c(cc1OC)-c1cc(N(c3c(OC)cc(C)cc3OC)C(C)CNC(N)=O)nc(=O)n1CC2 (single isomer, unassigned) [Compound 24-1] | 2.91 nM | 201 nM | 319 nM | 4.47 nM |
| COc1cc2c(cc1OC)-c1cc(N(c3c(C)cc(C)cc3C)C(C)CNC(=O)OC(C)(C)C)nc(=O)n1CC2 (centres unmarked) | 0.045 nM | 489 nM | 275 nM | 0.103 nM |
| COc1cc2c(cc1OC)-c1cc(N(c3c(C)cc(C)cc3C)C(C)C)nc(=O)n1CC2 | 0.241 nM | 814 nM | 199 nM | 0.165 nM |
| COc1cc2c(cc1OC)-c1cc(N(c3c(C(C)C)cc(C)cc3C(C)C)C3CC(NC(N)=O)C3)nc(=O)n1CC2 (centres unmarked) | 6.06 nM | 44.1 nM | 30.7 nM | 17.8 nM |

| SMILES | IC50 [1] | IC50 [2] | IC50 [3] | IC50 [4] |
| --- | --- | --- | --- | --- |
| COc1cc2c(cc1OC)-c1cc(N(c3c(C)cc(C)cc3C)C3CCN(C(N)=O)CC3)nc(=O)n1CC2 | 0.0695 nM | 29.2 nM | 23.3 nM | 0.0883 nM |
| COc1cc2c(cc1OC)-c1cc(N(c3c(C)cc(C)cc3C)C(C)CNC(=O)NC3CC3)nc(=O)n1CC2 (centres unmarked) | 0.0822 nM | 122 nM | 115 nM | 0.118 nM |
| COc1cc2c(cc1OC)-c1cc(N(c3c(C)cc(C)cc3C)C(C)CNC(=O)c3cnn[nH]3)nc(=O)n1CC2 (single isomer, unassigned) [Compound 9-1] | 0.0726 nM | 18.1 nM | 20 nM | 0.139 nM |
| CNC(=O)NCC(C)N(c1cc2n(c(=O)n1)CCc1cc(OC)c(OC)cc1-2)c1c(C)cc(C)cc1C (centres unmarked) | 0.078 nM | 23.3 nM | 17.2 nM | 0.134 nM |
| COc1cc2c(cc1OC)-c1cc(N(c3c(C)cc(C)cc3C)C(C)CNC(=O)c3ccn[nH]3)nc(=O)n1CC2 (single isomer, unassigned) [Compound 11-1] | > 40 nM | 5.07 nM | 4.55 nM | > 40 nM |
| COc1cc2c(cc1OC)-c1cc(N(c3c(C)cc(C)cc3C)C(C)CNC(=O)c3ccncn3)nc(=O)n1CC2 (centres unmarked) | 0.101 nM | 152 nM | 108 nM | 0.169 nM |
| CCN(CC)CCN(c1cc2n(c(=O)n1)CCc1cc(OC)c(OC)cc1-2)c1c(C)cc(C)cc1C | 21.2 nM | 15200 nM | 13800 nM | > 40 nM |
| COc1cc2c(cc1OC)-c1cc(N(C(C)=O)c3c(C)cc(C)cc3C)nc(=O)n1CC2 | 2.2 nM | 1120 nM | 669 nM | 2.89 nM |
| CCC(CNC(N)=O)N(c1cc2n(c(=O)n1)CCc1cc(OC)c(OC)cc1-2)c1c(C)cc(C)cc1C (single isomer, unassigned) [Compound 15-1] | 0.0796 nM | 73.7 nM | 64.7 nM | 0.0824 nM |
| COc1cc2c(cc1OC)-c1cc(N(c3c(C)cc(C)cc3C)C(C)CNC(=O)c3ncc[nH]3)nc(=O)n1CC2 (single isomer, unassigned) [Compound 10-1] | 0.0477 nM | 35.5 nM | 40.2 nM | 0.0642 nM |
| COc1cc2c(cc1OC)-c1cc(N(c3c(C)cc(C)cc3C)C3CC3CNC(N)=O)nc(=O)n1CC2 (single isomer, unassigned) [Compound 7-2] | 0.114 nM | 205 nM | 277 nM | 0.256 nM |
| COc1cc2c(cc1OC)-c1cc(N(c3c(C)cc(C)cc3C)C(C)CNC(=O)c3n[nH]nc3C)nc(=O)n1CC2 (single isomer, unassigned) | 0.126 nM | 1.23 nM | 1.42 nM | 0.101 nM |
| [2H]C([2H])([2H])Oc1cc2c(cc1OC([2H])([2H])[2H])-c1cc(N(c3c(C)cc(C)cc3C)C(C)CNC(N)=O)nc(=O)n1CC2 (centres unmarked) | 0.114 nM | 52.4 nM | 41.8 nM | 0.106 nM |
| CCCCN(c1cc2n(c(=O)n1)CCc1cc(OC)c(OC)cc1-2)c1c(C)cc(C)cc1C | 0.249 nM | 113 nM | 121 nM | 0.46 nM |
| COc1cc2c(cc1OC)-c1cc(N(c3c(C)cc(C)cc3C)C3CC3CNC(N)=O)nc(=O)n1CC2 (single isomer, unassigned) [Compound 7-1] | 0.141 nM | 152 nM | 150 nM | 0.287 nM |
| COC(=O)NCC(C)N(c1cc2n(c(=O)n1)CCc1cc(OC)c(OC)cc1-2)c1c(C)cc(C)cc1C (centres unmarked) | 0.0999 nM | 30.4 nM | 23 nM | 0.122 nM |

Source: patent EP4825857A1, “TRICYCLIC FUSED HETEROCYCLIC PDE3/4 DUAL INHIBITOR, AND PREPARATION AND USE THEREFOR” (dated 2026)
